Laboratory results reported in article PMC9604311, “Synthesis, Biological Activity and Molecular Docking of Chimeric Peptides Targeting Opioid and NOP Receptors” (International Journal of Molecular Sciences, 2022).

Protein sequences, listed by entry. Tags and fused reporters are not part of them. Lines headed by an entry give the natural chain unless they say otherwise; changes in a name come on top.
UniProt P41145: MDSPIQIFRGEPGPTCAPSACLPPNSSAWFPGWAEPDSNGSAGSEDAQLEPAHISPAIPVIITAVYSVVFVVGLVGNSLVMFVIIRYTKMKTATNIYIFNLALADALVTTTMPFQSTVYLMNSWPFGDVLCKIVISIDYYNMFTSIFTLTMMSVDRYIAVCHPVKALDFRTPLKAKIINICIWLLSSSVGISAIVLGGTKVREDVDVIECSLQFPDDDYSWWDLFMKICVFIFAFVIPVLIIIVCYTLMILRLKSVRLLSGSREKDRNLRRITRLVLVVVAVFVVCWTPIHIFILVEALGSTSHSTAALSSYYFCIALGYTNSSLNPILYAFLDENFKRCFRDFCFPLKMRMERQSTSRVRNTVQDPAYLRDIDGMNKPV
UniProt P41143, whole entry: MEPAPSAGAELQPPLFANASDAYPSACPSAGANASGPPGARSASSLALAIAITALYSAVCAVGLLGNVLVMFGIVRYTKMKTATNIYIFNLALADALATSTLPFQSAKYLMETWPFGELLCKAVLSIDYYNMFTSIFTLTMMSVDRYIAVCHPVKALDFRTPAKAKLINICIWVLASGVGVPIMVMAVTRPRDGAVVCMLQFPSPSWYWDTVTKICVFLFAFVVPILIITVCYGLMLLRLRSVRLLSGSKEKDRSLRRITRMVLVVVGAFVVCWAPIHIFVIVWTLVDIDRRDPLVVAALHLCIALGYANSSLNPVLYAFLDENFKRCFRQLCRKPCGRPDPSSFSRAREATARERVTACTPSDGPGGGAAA

Assays:
[1] = target: T1, human KOP (Homo sapiens, UniProt P41145); assay type: cell-based; conditions: inactive = inactive up to 1 μM
T1 construct: expressed in transfected cells; host or cells: CHO cells

[2] = target: human DOP (Homo sapiens, UniProt P41143); assay type: cell-based; design: expressed in transfected cells; host or cells: CHO cells; conditions: inactive = inactive up to 1 μM
[3] = agonist potency, calcium mobilization

CC(C)C[C@H](NC(=O)[C@H](CCCCN)NC(=O)[C@H](CCCNC(=N)N)NC(=O)[C@H](C)NC(=O)[C@H](CO)NC(=O)[C@H](CCCCN)NC(=O)[C@H](CCCNC(=N)N)NC(=O)[C@H](C)NC(=O)CNC(=O)[C@@H](NC(=O)[C@H](Cc1ccccc1)NC(=O)CNC(=O)CNC(=O)[C@@H](N)Cc1ccccc1)[C@@H](C)O)C(=O)N[C@@H](C)C(=O)N[C@@H](CC(N)=O)C(=O)N[C@@H](CCC(N)=O)C(=O)O [N/OFQ]
inactive: KOP pEC50 (CL95%) [1, 3] | KOP α ± SEM ([1]; efficacy (intrinsic activity) relative to dynorphin A) | DOP pEC50 (CL95%) [2, 3] | DOP α ± SEM ([2]; efficacy (intrinsic activity) relative to DPDPE)
